Paper PMC2714318

Molecular target: ASP1 (actinobacteria-specific protein 1; SCO1997) from Streptomyces coelicolor A3(2) (Streptomyces coelicolor A3(2)) (UniProt Q9S2K6)
Assay: SEC; S200 size exclusion column, full length ASP1 at 5 mg/mL, 20 mM Tris pH 7.4, 200 mM KCl; single peak at 13.8 mL, calibrated with a standard curve

- stoichiometry N: 3
Substance: ASP1 (actinobacteria-specific protein 1; SCO1997) from Streptomyces coelicolor A3(2) (from UniProt Q9S2K6 1-312) (natural protein)
